# Laboratory results: ChEMBL document CHEMBL1125059, “Hydroxamic acid inhibitors of 5-lipoxygenase: quantitative structure-activity relationships” (J Med Chem, 1990)
# Columns and labels:
# [1] = molecular target: T1, Polyunsaturated fatty acid 5-lipoxygenase (Rattus norvegicus, UniProt P12527); assay: Logarithmic value of inhibitory concentration against 5-lipoxygenase in rat basophilic leukemia cells (RBL-1); type: cell-based; details: read-out: Log 1/IC50 (converted)
# T1 sequence (P12527 whole entry): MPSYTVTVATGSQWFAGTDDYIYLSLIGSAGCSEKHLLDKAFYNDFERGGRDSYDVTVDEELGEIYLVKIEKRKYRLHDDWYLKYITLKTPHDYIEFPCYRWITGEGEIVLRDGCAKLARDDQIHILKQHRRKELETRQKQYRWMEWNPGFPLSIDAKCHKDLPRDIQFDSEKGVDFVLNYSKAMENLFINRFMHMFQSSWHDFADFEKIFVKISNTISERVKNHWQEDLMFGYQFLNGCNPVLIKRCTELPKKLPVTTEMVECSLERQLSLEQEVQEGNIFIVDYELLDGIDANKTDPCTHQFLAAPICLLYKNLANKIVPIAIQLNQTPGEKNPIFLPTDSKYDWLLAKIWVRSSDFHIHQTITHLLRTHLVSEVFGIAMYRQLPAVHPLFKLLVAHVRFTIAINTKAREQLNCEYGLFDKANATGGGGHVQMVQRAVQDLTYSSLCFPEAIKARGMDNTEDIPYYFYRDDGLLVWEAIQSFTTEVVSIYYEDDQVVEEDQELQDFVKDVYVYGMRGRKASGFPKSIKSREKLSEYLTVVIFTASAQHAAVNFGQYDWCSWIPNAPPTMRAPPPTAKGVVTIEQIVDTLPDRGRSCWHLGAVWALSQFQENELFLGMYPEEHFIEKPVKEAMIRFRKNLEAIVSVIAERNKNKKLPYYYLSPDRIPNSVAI
# Summary of the method: (§1)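 Enzyme source: sonicated lysate of trypsin-harvested adherent RBL-1 cells (3.0 × 10^7 cells/mL in 10 mM BES, 10 mM PIPES, 1 mM EDTA, pH 6.8), 20000g 20-min supernatant. Compounds in DMSO preincubated with enzyme 20 min at 37 °C in buffer with 0.7 mM CaCl2, 100 mM NaCl. Radiolabelled 5-HETE counted after chromatography, corrected via [3H]5-HETE recovery.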
# [2] = molecular target: T1, Polyunsaturated fatty acid 5-lipoxygenase; assay: In vitro inhibitory activity against 5-lipoxygenase in rat basophilic leukemia cells(RBL-1); type: cell-based; summary of the method: as §1
IC50 [1],IC50 [2],SMILES
100 nM,300 nM,CN(O)C(=O)/C=C/c1cc2ccccc2cc1[N+](=O)[O-]
1820 nM,1800 nM,CN(O)C(=O)/C(=C/c1ccc2ccccc2c1)c1ccc(Br)cc1
50.1 nM,510 nM,CN(O)C(=O)/C(=C/c1ccc2ccccc2c1)c1ccccc1
